{"source": "patent US5786517A", "about": "“Metal-ligand complex catalyzed processes” (Union Carbide Chemicals & Plastics Technology Corporation, priority 1996, dated 1998)", "assay": "Stability of Ligand F in rhodium-containing butyraldehyde solution by HPLC (Examples 2-4)", "conditions": "after either 24 or 72 hours; 0.018 grams phosphorous acid and 0.0337 grams benzimidazole added"}
{"compound": "CC(C)(C)c1cc(-c2cc(C(C)(C)C)cc(C(C)(C)C)c2Op2oc3ccccc3c3ccccc3o2)c(Op2oc3ccccc3c3ccccc3o2)c(C(C)(C)C)c1", "note": "[Ligand F]", "values": [{"measurement": "decomposition of Ligand F", "result": "No decomposition"}]}
